This assay concerns CoA-IT. As to the kind of experiment: CoA-IT activity assay in U937 cell microsomes. In kind it is biochemical. The following applies: at concentrations up to 500 μM. The text has this:
The following is a method to measure CoA-IT activity and the effects of compounds on CoA-IT activity. The assay is based upon mixing cellular material containing CoA-IT activity with a stable lyso phospholipid such as […] and measuring the production of phospholipid product such as […] occurring in the absence of added CoA or CoA-fatty acids.
Any inflammatory cell that contains high levels of CoA-IT activity can be used, such as neutrophils, macrophages or cell lines such as U937 cells. U937 cells were obtained from American Type Culture Collection and grown in RPMI-1640 media (Gibco, Grand Island, N.Y.) supplemented with 10% fetal bovine serum (Hyclone, Logan, UT) at 37° C., 5% CO2. Cells were grown without differentiation (basal state) by any agent, such as dimethyl sulfoxide. […]
CoA-II activity was measured in 1.5 ml centrifuge tubes in a total volume of 100 ul. […] An aliquot of the chloroform-extracted materials were separated, usually by TLC in chloroform/methanol/acetic acid/water (50:25:8:4, v/v), visualized by radioscanning (Bioscan) and the product, [3H]1-alkyl-2-acyl-GPC, was scraped and quantified by liquid scintillation spectroscopy. […]
Protein concentration were assessed using the protein assay reagents from Bio Rad (Richmond, Calif.).

The structures appear in SMILES notation.

In the case of `O=C(O)Cc1ccccc1Nc1c(Cl)cccc1Cl` [Sodium diclofenac], the “effect on CoA-IT activity” value is on record as “no effect”.

Source of the values: patent US6451785B1, “Beta lactams as antiproliferative agents” (SmithKline Beecham Corporation, priority 1997, dated 2002).
